The list shows a part of the results, in another mix than the full data. Some tests of the compounds listed are not included; inactive here does not mean inactive elsewhere. Active and inactive are the calls of the source. Rule as the data show it: active = inhibition above about 50%; inactive = the rest.
target: M-phase inducer phosphatase 2 (Homo sapiens) (UniProt P30305); experiment: human Cdc25B tyrosine phosphatase blockers – biochemical, OMFP fluorescence, catalytic domain, primary screen (AID 368); details: recombinant Cdc25B, OMFP fluorescence Ex485/Em525; hits give high values;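 compounds tested at 10 µM final in the well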

By UniProt entry, the sequences of proteins in these tests, tags left out.
UniProt P30305, whole entry: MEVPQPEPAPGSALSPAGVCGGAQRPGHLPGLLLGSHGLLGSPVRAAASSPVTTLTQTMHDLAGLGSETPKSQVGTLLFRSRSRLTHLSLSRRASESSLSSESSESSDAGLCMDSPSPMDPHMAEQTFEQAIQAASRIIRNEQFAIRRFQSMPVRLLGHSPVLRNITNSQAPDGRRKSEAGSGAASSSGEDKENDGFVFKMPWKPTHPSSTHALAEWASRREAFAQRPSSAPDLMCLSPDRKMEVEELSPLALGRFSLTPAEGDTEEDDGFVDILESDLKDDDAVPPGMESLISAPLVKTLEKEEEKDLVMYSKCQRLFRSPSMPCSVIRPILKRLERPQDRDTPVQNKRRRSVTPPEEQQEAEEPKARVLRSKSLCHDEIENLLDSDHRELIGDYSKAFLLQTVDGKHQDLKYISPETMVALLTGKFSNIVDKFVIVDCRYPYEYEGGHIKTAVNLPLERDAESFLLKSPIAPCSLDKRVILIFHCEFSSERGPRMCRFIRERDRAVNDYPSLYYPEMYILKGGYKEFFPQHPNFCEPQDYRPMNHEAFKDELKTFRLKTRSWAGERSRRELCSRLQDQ

Which inhibition does the source give for CN(C)c1cccc(C(=O)NCC2(N(C)C)CCCCC2)c1 here?
The inhibition was inactive: -6.06%.

How did the inhibition turn out when O=C(OC1CN2CCC1CC2)C(CO)(c1ccccc1)c1ccccc1 (configuration not stated) was run?
Its inhibition is inactive: -10.2%.

— PubChem BioAssay AID368 (University of Pittsburgh Molecular Library Screening Center, 2006)
